Measured values taken from patent US11046680B1, “Heteroaryl-substituted triazoles as APJ receptor agonists” (priority 2016, dated 2021).

Amino acid sequences for entries named in this document (tags omitted). A change or cut given only in a name is not applied to a line headed by its entry.
UniProt P35414: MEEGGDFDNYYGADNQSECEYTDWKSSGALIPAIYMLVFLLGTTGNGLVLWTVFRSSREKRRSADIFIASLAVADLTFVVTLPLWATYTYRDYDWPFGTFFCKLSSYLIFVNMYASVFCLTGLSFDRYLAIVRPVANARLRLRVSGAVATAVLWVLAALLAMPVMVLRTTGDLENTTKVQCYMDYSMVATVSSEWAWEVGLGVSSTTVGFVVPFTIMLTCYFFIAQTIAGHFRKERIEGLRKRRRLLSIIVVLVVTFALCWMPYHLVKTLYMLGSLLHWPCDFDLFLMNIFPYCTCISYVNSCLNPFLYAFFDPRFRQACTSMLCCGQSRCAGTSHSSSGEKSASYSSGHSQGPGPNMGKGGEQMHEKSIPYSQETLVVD

Biological target: human APJ receptor (Homo sapiens (Human), UniProt P35414)
Assay type: biochemical
Details: [35S]GTPγS binding, CHO membranes expressing human APJ receptor; read-out: Activity hAPJ SPA EC50 IP
Procedure: The human APJ receptor was cloned by polymerase chain reaction and the gene encoding the receptor was subcloned in pFLAG-CMV™-3 expression vector (Sigma, Saint Louis, Mo. USA) in-house at Amgen. A GTPγS binding assay was performed on membranes prepared from CHO cells stably expressing human APJ receptor. The optimum experimental conditions for the concentrations of GDP, MgCl2, and NaCl in the assay buffer were initially determined. […] Incubation was at RT for 90 min and the microplate was read using a ViewLux™ ultra HTS Microplate Imager (PerkinElmer, Inc.).

Going from “(R)-N-(4-(2,6-dimethoxyphenyl)-5-(pyridazin-4-yl)-4H-1,2,4-triazol-3-yl)-1-(5-fluoropyrimidin-2-yl)propane-2-sulfonamide or (S)-N-(4-(2,6-dimethoxyphenyl)-5-(pyridazin-4-yl)-4H-1,2,4-triazol-3-yl)-1-(5-fluoropyrimidin-2-yl)propane-2-sulfonamide [Example 51.0]” to “(R)-2-(5-Chloropyridin-2-yl)-N-(4-(2,6-dimethoxyphenyl)-5-(1-methyl-1H-pyrazol-3-yl)-4H-1,2,4-triazol-3-yl)-2-hydroxyethanesulfonamide or (S)-2-(5-chloropyridin-2-yl)-N-(4-(2,6-dimethoxyphenyl)-5-(1-methyl-1H-pyrazol-3-yl)-4H-1,2,4-triazol-3-yl)-2-hydroxyethanesulfonamide [Example 367.0]”, the EC50 falls from 300 nM to 1.1 nM (270-fold). The second is the more potent here.

Going from “(2S)-N-(4-(2,6-dimethoxyphenyl)-5-(1,3-oxazol-2-yl)-4H-1,2,4-triazol-3-yl)-1-(5-fluoro-2-pyrimidinyl)-2-propanesulfonamide or (2R)-N-(4-(2,6-dimethoxyphenyl)-5-(1,3-oxazol-2-yl)-4H-1,2,4-triazol-3-yl)-1-(5-fluoro-2-pyrimidinyl)-2-propanesulfonamide [Example 184.0]” to “(1R,2S)-N-(4-(2,6-dimethoxyphenyl)-5-(1-methyl-1H-pyrazol-3-yl)-4H-1,2,4-triazol-3-yl)-1-(5-fluoropyridin-2-yl)-1-methoxypropane-2-sulfonamide or (1S,2R)-N-(4-(2,6-dimethoxyphenyl)-5-(1-methyl-1H-pyrazol-3-yl)-4H-1,2,4-triazol-3-yl)-1-(5-fluoropyridin-2-yl)-1-methoxypropane-2-sulfonamide [Example 27.0]”, the EC50 falls from 150 nM to 16 nM (9.4-fold).

“(1R,2R)-1-(5-chloro-1,3-thiazol-2-yl)-N-(4-(2,6-dimethoxyphenyl)-5-(5-methyl-1H-pyrazol-3-yl)-4H-1,2,4-triazol-3-yl)-1-methoxy-2-propanesulfonamide or (1S,2S)-1-(5-chloro-1,3-thiazol-2-yl)-N-(4-(2,6-dimethoxyphenyl)-5-(5-methyl-1H-pyrazol-3-yl)-4H-1,2,4-triazol-3-yl)-1-methoxy-2-propanesulfonamide [Example 278.0]” showed an EC50 of 9.5 nM.
